Measurements taken from publication PMC3905715 (Nature Communications, 2013).

T1: mouse Rspo2 Fu1 (I39-R95), immobilised for SPR (mouse, UniProt Q8BFU0 39-95, biotin at the C-terminal BirA recognition sequence)
T1 chain: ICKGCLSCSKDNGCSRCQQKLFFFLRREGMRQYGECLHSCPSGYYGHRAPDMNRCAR

B1: mouse Rspo2 Fu1–Fu2 (I39-G144), biotinylated, immobilised for SPR (domain or fragment, UniProt Q8BFU0 39-144, looked up)
chain: ICKGCLSCSKDNGCSRCQQKLFFFLRREGMRQYGECLHSCPSGYYGHRAPDMNRCARCRIENCDSCFSKDFCTKCKVGFYLHRGRCFDECPDGFAPLDETMECVEG
modifications: biotin at the C-terminal BirA recognition sequence
notes: R-spondin 2, mouse, residues I39-G144; also called mRspo2_(Fu1–Fu2) (I39-G144); mRSPO2(I39-G144)
B2: mouse Rspo2 Fu1 (I39-R95), immobilised for SPR (domain or fragment, UniProt Q8BFU0 39-95, looked up)
chain: T1 chain
modifications: biotin at the C-terminal BirA recognition sequence
notes: R-spondin 2, mouse, Furin1 domain, residues I39-R95; also called mRspo2Fu1
B3: mouse ZNRF3 ectodomain (mZNRF3ecto, K53-L205) (domain or fragment, UniProt Q5SSZ7 53-205, looked up)
chain: KETAFVEVVLFESSPSGDYTTHTTGLTGRFSRAGAMLSAEGEIVQMHPLGLCNNNDEEDLYEYGWVGVVKLEQPELDPKPCLTVLGKAKRAVQRGATAVIFDVSENPEAIDQLNQGSEDPLKRPVVYVKGADAIKLMNIVNKQKVARARIQHL
notes: ZNRF3 ectodomain, mouse, residues K53-L205; pHLsec vector; used for crystals, ultracentrifugation and as SPR analyte; also called wt mZNRF3_(ecto); source: HEK293T, secreted, purified (HisTrap, gel filtration)

How the values were obtained:
[1] = target: B3; test: SPR; mZNRF3ecto as analyte, biotinylated Rspo variants immobilised on streptavidin; equilibrium, 25 °C, 10 mM HEPES/NaOH pH 7.5, 150 mM NaCl, 0.005% Tween20; Biacore T200; conditions: both partners purified
[2] = target: T1, mouse Rspo2 Fu1 (I39-R95), immobilised …; test: SPR

Row | binding result [1] | Kd [2] [nM] | Binder
1 | binds | – | B1
2 | binds | – | B2
3 | – | 510 | B3
